Data reported in patent US8623416B2 (priority 2009, dated 2014).

Conditions: injection of 1 mg of suspension at 1 mg/ml

squalamine phosphate
steady state concentration of squalamine to which local tissues are exposed: ≤ 1 µg/mL
